The record followed here is patent US10485739B2, “High strength microcapsules” (ENCAPSYS, LLC, priority 2014, dated 2019).

This series is described as follows: Monomer solubility in water (GC/MS of water phase). The following applies: @ 25° C.; monomer equilibrated with deionized water 24 hours. In kind it is physicochemical. As to the method: Monomer Solubility in Water
Solubility of the monomers in water is determined by combining 5 g of monomer and 5 g of deionized water in a sealed 20 ml vial for 30 min, after which the sample is allowed to sit at room temperature for 24 hours to establish equilibrium and phase separation of monomer from water. The water phase was then removed and analyzed to determine the monomer concentration GC/MS (7890B GC with a 5977A MSD Mass Spectrophotometer), both from Agilent. Inlet temperature at 270 C. Ramp starting at 100° C. to 320° C. at 10 degrees per min. The mass spec was scanning from a molecular weight of 30-500. The GC column was a Agilent DB-SMS 30M×0.250 mm.

As for “ethoxylated (30) bisphenol A diacrylate [SR9038]”, the Solubility in water result is “soluble”.

The substance “Ethoxylated (4) bisphenol A diacrylate [SR601]” yielded a Solubility in water of 450 µg/mL.
